Measured values: patent US20110052537A1, “NITRO-BASED EXPLOSIVE REMEDIATION” (published 2011)

What was measured:
[1] = test system: Desulfovibrio desulfuricans ssp dosulluricans A; test: TNT degradation by ruminal bacteria cultures (Table 2); conditions: substrate A, anaerobic culture with TNT
[2] = test system: Clostridium polysaccharolyticum ATCC 33142; test: as above; conditions: Clostridium polysaccharolyticum ATCC 33142, substrate C; anaerobic culture with TNT

Row | Structure (SMILES) | TNT / metabolite found in culture (HPLC), column per compound [1] [%] | TNT / metabolite found in culture (HPLC), column per compound [2] [%]
1 | Cc1c([N+](=O)[O-])cc(N)cc1[N+](=O)[O-] | 34 | 19
2 | Cc1c(N)cc(N)cc1[N+](=O)[O-] | 0 | 0
3 | Cc1c(N)cc([N+](=O)[O-])cc1N | 0 | 0
4 | Cc1c(N)cc([N+](=O)[O-])cc1[N+](=O)[O-] | 21 | 20
